Reference: the Kinase Knowledgebase extract (Sharma et al. 2016)

The chains behind the UniProt entries cited, without tags or fusion partners.
UniProt Q16539, whole entry, looked up: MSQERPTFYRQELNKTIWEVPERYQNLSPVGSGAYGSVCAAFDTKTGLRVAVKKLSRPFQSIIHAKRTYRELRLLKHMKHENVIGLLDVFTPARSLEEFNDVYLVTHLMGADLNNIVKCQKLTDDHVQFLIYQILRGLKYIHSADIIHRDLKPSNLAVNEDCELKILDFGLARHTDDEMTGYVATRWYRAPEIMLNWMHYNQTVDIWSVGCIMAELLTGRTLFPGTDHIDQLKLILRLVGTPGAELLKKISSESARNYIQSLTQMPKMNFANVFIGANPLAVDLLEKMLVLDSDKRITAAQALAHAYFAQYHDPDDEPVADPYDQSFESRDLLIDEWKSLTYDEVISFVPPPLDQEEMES

The compounds below were run against MAPK14 (UniProt Q16539) (assay: Enzyme Assay).

IC50 | Compound
< 200 µM | Nc1ncccc1OCc1cccc2ccccc12
< 2000 µM | c1ccc(COc2cccnc2)cc1
< 200 µM | OCCNc1ccc(OCc2c(Cl)cccc2Cl)cn1
< 200 µM | CC(C)(CO)Nc1ccc(OCc2c(Cl)cccc2Cl)cn1
